Molecules are shown by their SMILES.

Amino acid sequences for entries named in this document (tags omitted).
UniProt P33535, whole entry: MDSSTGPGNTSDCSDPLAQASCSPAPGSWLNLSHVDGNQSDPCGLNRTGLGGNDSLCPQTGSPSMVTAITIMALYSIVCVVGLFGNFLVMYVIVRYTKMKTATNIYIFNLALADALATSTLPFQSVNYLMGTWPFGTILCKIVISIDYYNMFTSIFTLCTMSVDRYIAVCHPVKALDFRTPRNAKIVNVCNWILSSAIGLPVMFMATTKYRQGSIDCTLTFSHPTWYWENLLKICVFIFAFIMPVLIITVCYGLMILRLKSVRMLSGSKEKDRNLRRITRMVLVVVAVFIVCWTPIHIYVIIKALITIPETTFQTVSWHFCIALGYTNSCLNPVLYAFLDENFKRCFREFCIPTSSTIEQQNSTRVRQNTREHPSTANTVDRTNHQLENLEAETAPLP

This assay concerns the target T1, MOR (Rattus norvegicus, UniProt P33535).
T1 construct: from tissue; host or cells: brain membranes of male Sprague-Dawley rats
The assay can be described thus: MOR radioligand binding assay ([3H]-DAMGO, rat brain membranes).

The compound `C[C@@H](NC(=O)[C@@H](N)Cc1ccc(O)cc1)C(=O)NCC(=O)N(C)[C@@H](Cc1ccccc1)C(=O)NCCO` [[^3H]DAMGO, reference compound] gave a Kd of 1 nM.

Source of the values: PMC9413390 (Molecules, 2022).
